Apparent affinities of Ab-91 variants for a coronavirus HR2 peptide

Data: MIT Lincoln Laboratory AlphaSeq set, Engelhart et al. 2022, doi:10.1038/s41597-022-01779-4, as distributed in FLAb.

Target peptide (SARS-CoV-2 spike, HR2 region): PDVDLGDISGINAS

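The parent was found by panning a naive human phage display library on the peptide. In library AAYL51, one, two or three CDR residues were substituted; doubles and triples were drawn at random. The scFvs were displayed on barcoded MATa yeast, the peptide on MATalpha yeast. Mating (16 h, 30 °C) was followed by selection of diploids and sequencing of their barcodes. Each replicate has its own calibration line, from reference interactions of the BCL2 family. Each pool was mated in three replicate cultures.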

Parent: Ab-91, a human scFv built as VL, the linker GGGGSGGGGSGGGGS, VH. Only the CDRs of the heavy chain vary.
VL: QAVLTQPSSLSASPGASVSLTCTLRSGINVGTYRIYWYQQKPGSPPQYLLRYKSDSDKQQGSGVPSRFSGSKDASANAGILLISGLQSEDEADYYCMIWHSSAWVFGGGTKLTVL
VH: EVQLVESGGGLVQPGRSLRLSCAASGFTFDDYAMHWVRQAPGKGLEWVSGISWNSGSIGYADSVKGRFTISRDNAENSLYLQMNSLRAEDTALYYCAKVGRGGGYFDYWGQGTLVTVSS

Each variant is given by its three heavy chain CDRs, as the data file delimits them; those of the parent are GFTFDDYAMH, GISWNSGSIGYADSVK, VGRGGGYFDY. Affinities are written as log10 Kd with Kd in nM; a lower number is a better binder. Replicates are averaged; those with no signal do not enter the mean. Where no diploid with the target was found in that replicate, the entry reads "ND": below detection, most likely a poor binder, though not proof of it. Empty control strains, which show no peptide, gave a signal in 21% of pairings with library AAYL51; the median was 4.54 and 95% of these signals were weaker than 3.26. No background was subtracted. The control count says in how many pairings with the empty strains this scFv gave a signal, with their mean in brackets.

CDR-H1 | CDR-H2 | CDR-H3 | log10 Kd, replicates | mean log10 Kd (nM) | control signals
GFTFDAYAMH | GISWNPGSIGYADSHK | VGRGGGYFDY | ND ND ND | ND | 0/9
GFTFDDYAMH | GESWNFGSIGYADSVK | VGRGGGYFDY | 5.20 4.97 4.34 | 4.84 | 3/9 (4.76)
GFTFDDYAMH | GISWNSGSIGYVDSVK | VGRGGGYLDN | 2.46 1.87 1.40 | 1.91 | 1/9 (4.72)
GFGFDDYAMH | GISWNSGSIGYADSGK | VGRGGGYRDY | ND ND ND | ND | 3/9 (4.63)
GFTFIDYFMH | GISWNSGSIGHADSVK | VGRGGGYFDY | 4.39 4.86 ND | 4.62 | 2/9 (4.49)
GFTFDDYAMH | GISWNSGSIGYADSVK | RGRGGGAFDS | ND ND ND | ND | 0/9
GFTFDDYAMH | LISWNSGSIGYAKSVK | VGRGGGGFDY | ND ND ND | ND | 0/9
GFTFDDYAMH | GISWNSGSIAYANSVP | VGRGGGYFDY | ND ND ND | ND | 0/9
GFTFDFYAMH | GISWNSGSIGYADSVK | SGRGGGYFDY | 2.31 1.83 1.72 | 1.95 | 1/9 (4.33)
GFTFDDYGMH | GISWNQGSIGYADSVK | VGRGGFYFDY | ND ND ND | ND | 0/9
GFTFDDYAMH | GISWNSGSIGYMDSVK | VGRGGGYFDY | 1.68 1.71 1.74 | 1.71 | 0/9
GFTFDDYAMH | GISWNSGMIGYADSVK | VGRGMGYFDY | ND ND ND | ND | 0/9
GFTFDDYAMH | GISWNSGSIGYADSLK | VGRGSGYFDY | ND ND ND | ND | 2/9 (3.83)
GFTFDDYAKH | GISWNSGSIHYADSVK | VGRGGRYFDY | ND ND ND | ND | 2/9 (4.34)
GFTFDDYAMH | GISWNSGSIGYADSVK | SGYGGGYADY | 4.55 ND ND | 4.55 | 2/9 (4.48)
GFTFDDYLMH | GISWNSGSVGYADLVK | VGRGGGYFDY | 3.78 ND ND | 3.78 | 3/9 (4.92)
GQTFSDYAMH | GISWNSGSIGYADSVK | VGRGGGYFDK | ND ND ND | ND | 3/9 (4.00)
GFTFFDLNMH | GISWNSGSIGYADSVK | VGRGGGYFDY | 5.39 ND ND | 5.39 | 0/9
GFTFDAYAMH | GISWNSGSIGYADSAK | VGRGGGTFDY | 1.37 1.62 1.00 | 1.33 | 7/9 (4.81)
GFTFDDYAMH | GASWMSGSIGAADSVK | VGRGGGYFDY | ND ND ND | ND | 0/9
GFTFIDYAMH | MISWNSGSIGYADSVK | VGRGGQYFDY | 5.51 ND ND | 5.51 | 3/9 (4.68)
GFTFDDYAMH | GISWNSGSHGYADSVK | VGRGRGYYDY | ND ND ND | ND | 2/9 (3.84)
GFTFDDYAMN | GISWNSGSIGHADMVK | VGRGGGYFDY | 5.19 5.21 5.18 | 5.20 | 6/9 (4.81)
GFTFDDYAMH | GISWNSGMIGYADSVK | VGRIGSYFDY | 3.92 ND ND | 3.92 | 0/9
GFTFDDYAMH | GCSWNSGSIGYLDSVK | VGRIGGYFDY | ND ND ND | ND | 0/9
GFTFDDYAMH | GISWNSGSIGYADSVK | VGRHGGYIDY | 6.68 5.87 4.80 | 5.78 | 6/9 (5.28)
GLTFDDYAMH | GISWWFGSIGYADSVK | VGRGGGYFDY | 3.87 ND ND | 3.87 | 4/9 (4.93)
GFTFDDYAMH | GISWNSGSIGYGDSVK | VSRGGGYFDY | ND ND ND | ND | 3/9 (4.38)
YFTFDDYAMH | GISWNSWSIGYADSVK | VGRGGGYFLY | 4.89 ND ND | 4.89 | 3/9 (3.48)
GFTKDDYAMH | GISWNSGSIGYADSVK | VGRGGGYEDY | ND ND ND | ND | 2/9 (4.12)
GFTFDDYAMH | GISWNCGINGYADSVK | VGRGGGYFDY | 3.76 4.43 3.56 | 3.91 | 0/9
GFTFDDIAMH | GISWNSGSIGYADSVK | VGRGGGYFIT | 3.81 5.31 4.16 | 4.43 | 3/9 (4.55)
GFTFEDNAMH | GTSWNSGSIGYADSVK | VGRGGGYFDY | ND ND ND | ND | 0/9
GFTFDDYAMH | GISWNSGGIGYIDSVK | VGRTGGYFDY | ND ND 4.80 | 4.80 | 2/9 (4.17)
GFTFDDYAMH | GISWNHGSIGYADSVK | GGRGGGYFDY | ND ND ND | ND | 1/9 (3.76)
GFTFDDRAMH | GISWNSGSIGYADSVK | VGRGFGYFDH | ND ND ND | ND | 4/9 (4.48)
GFTFDDYAMH | GIHWNSGSIGYADSVK | VGRGGGYFDY | 4.44 5.64 ND | 5.04 | 2/9 (4.39)
GFTFDMYAMH | GISWNSGSIGYKDSVK | VGRGGGYMDY | 1.31 1.33 0.75 | 1.13 | 0/9
GFTFDDYAMF | GITWNSGSIGYADPVK | VGRGGGYFDY | ND ND 4.78 | 4.78 | 1/9 (5.18)
IFTFDEEAMH | GISWNSGSIGYADSVK | VGRGGGYFDY | ND ND ND | ND | 1/9 (3.33)
GFTFDDYAPH | GISWNSGSIGYADSVK | VGRYGGYWDY | ND ND ND | ND | 1/9 (4.55)
GFTFDDYAMH | GISNNSGSIGYADSVV | NGRGGGYFDY | 4.66 5.88 4.82 | 5.12 | 6/9 (5.14)
GFTFDDYAMH | GISWHSQSIDYADSVK | VGRGGGYFDY | ND ND ND | ND | 1/9 (3.28)
GFTFDDYAMH | GSSWNSGSIGYADKPK | VGRGGGYFDY | 4.84 4.47 5.74 | 5.02 | 1/9 (5.44)
GFPFDDYANH | GISWNSGSIGYADFVK | VGRGGGYFDY | ND 3.72 ND | 3.72 | 1/9 (4.30)

For reference, the parent read 1.86 as the reference entry and 0.88 as a member of this library.